# Binding of CDR-mutated scFvs to a peptide of the spike HR2 region

Source: Li et al. 2023 (doi:10.1038/s41467-023-39022-2), MIT Lincoln Laboratory and A-Alpha Bio; data file from the FLAb repository.

Antigen: PDVDLGDISGINAS, a 14-residue peptide of the SARS-CoV-2 spike HR2 region.

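Phage display of a naive human antibody library on the peptide gave the parent. This is the validation round: designs drawn from the data on random variants, tested in the same kind of assay. Their group label is 14L_En_Gibbs (En: ensemble of fine-tuned language models; Gibbs: Gibbs sampling). AlphaSeq pools MATa yeast showing the antibodies with MATalpha yeast showing the peptide. Pairs that bind mate more often; barcode pairs of the diploids are counted by sequencing. The ratio of observed to expected reads was calibrated, replicate by replicate, on BCL2-family standards whose Kd was known from biolayer interferometry. Mating was done six times.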

The variants keep the heavy chain, the linker and the frameworks of Ab-14 (scFv order VH, the linker GGGGSGGGGSGGGGS, VL).
VH: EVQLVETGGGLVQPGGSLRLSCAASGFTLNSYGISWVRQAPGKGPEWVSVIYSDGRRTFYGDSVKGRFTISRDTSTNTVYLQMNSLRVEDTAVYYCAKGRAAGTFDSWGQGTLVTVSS
VL: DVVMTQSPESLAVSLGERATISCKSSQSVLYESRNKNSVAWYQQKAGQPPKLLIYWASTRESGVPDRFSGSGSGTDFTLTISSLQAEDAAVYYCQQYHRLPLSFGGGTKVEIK

The parent's light chain CDRs are KSSQSVLYESRNKNSVA, WASTRES, QQYHRLPLS; each variant's own CDRs replace them letter for letter.
The read-out is the apparent dissociation constant on a log10 scale (nM): the lower, the stronger.
A pair that was not seen in that replicate is written "nd"; this usually means weak binding, but a binder can also be missed.
The authors averaged sequences with at least three values out of six and counted those with two or fewer as poor binders.

CDR-L1,CDR-L2,CDR-L3,"log10 Kd, replicates",control signals
NLSIQRQHQNMDANAVA,QTEIREV,QQYAQLPLA,0.18 0.49 0.33 0.64 0.33 0.75,1 of 18 (2.91)
TLGMQPTEMRDNKHAVA,DDNQRDR,QSYMRLPLS,1.70 1.35 0.53 1.23 0.98 2.27,0 of 18
QITEEQSMRTQGNWNIA,QAEQKVH,QQYDRLPLA,2.46 1.19 1.40 0.97 1.08 1.32,1 of 18 (1.54)
QFDLFENYQGNQNASIA,GTTNRHT,QQYQKLPLS,1.05 0.80 0.78 0.93 0.78 0.94,0 of 18
SMGYALFHEDAKAKSIA,ENDVRVY,QQYAKLPLT,1.32 1.30 1.09 1.53 0.84 1.27,1 of 18 (3.21)
SLTKLETVGQKKSENIA,DQSMRYE,QQYSRLPLK,0.17 0.10 0.06 0.11 0.28 0.20,1 of 18 (3.48)
HLNEQLVMDSKNQNHVA,STEQRES,QQYFRLPFT,0.06 0.03 -0.09 -0.09 -0.03 0.09,0 of 18
KLEDSNRWNLRGTNAVA,QASTRAA,QQYQRLPFL,0.34 -0.01 -0.08 -0.03 0.13 0.22,2 of 18 (2.98)
KLGGESYNSTYAMDAVA,DQNTTYE,QHYSRLPLT,nd nd nd nd nd nd,0 of 18
HIQEVDHQVENKYGNVA,DASEYAA,QQYFQLPIS,0.57 0.97 0.93 0.99 0.58 1.65,1 of 18 (2.70)
SLFFHDDQKQEESNNIA,HASLRSV,QQYMHLPLV,0.67 1.07 0.97 0.53 0.27 0.66,0 of 18
KLRWDDMSHFNTRSAVA,DMTMRVH,QQYNRLPLD,0.49 1.04 0.44 0.39 0.35 0.81,0 of 18
QIQFLDVQYGVKEQAVA,EENQRDQ,QHYFRLPLS,1.62 1.58 1.61 1.23 1.56 1.51,1 of 18 (2.12)
KLQLNVVDGWAMHNNIA,GDAWRAR,QQYYHLPLM,0.99 1.29 1.29 1.22 1.33 2.13,0 of 18
QFDQSYRVGALNTDSIA,HAEMRVQ,QSYNRLPLM,1.10 0.85 0.63 0.74 0.70 0.89,1 of 18 (2.82)
QINMEMYHDLNDAQNVA,DAMTEIK,QQYNRLPLS,0.27 0.39 0.18 -0.09 0.09 0.66,1 of 18 (2.53)
TIDLYTSYGNGENWAIA,DVSIKDY,QQYARLPLL,1.48 1.55 1.62 1.82 1.61 2.42,2 of 18 (3.52)
VLSDTAGNQYDEADNIA,DKTETSV,QQYARLPLS,1.32 0.58 0.98 1.24 0.72 0.91,1 of 18 (2.51)
VLPDHPLMKESQQHSIA,NEDKRME,QQYSRLPLM,0.42 0.57 0.49 0.38 0.50 0.72,0 of 18
QLAVDRGQEYKMGAAIA,GKTTLED,QQYAMLPLS,1.50 1.41 1.14 0.93 1.18 1.55,1 of 18 (1.40)
GIFSQMDGPTEEKENVA,NGNERLP,QQYQRLPLT,0.35 0.42 0.22 0.17 0.24 0.39,1 of 18 (3.53)
AISFEMESPHNHSNNVA,SESKRCS,QQYFTLPLS,nd nd 1.69 1.81 nd 2.01,2 of 18 (2.16)
NISIEDYSEHNNANNVA,STDCRCD,QQYFMLPLM,0.69 0.29 0.41 0.04 0.83 0.61,0 of 18
GMSDSMTETIADANHIA,DAEARDV,QQYARLPLI,0.44 0.29 0.11 0.26 0.24 0.49,1 of 18 (2.42)
TLHANIEYGGGMWKSIA,DNVQRAD,QYYQRLPLG,0.29 0.42 0.35 0.33 0.61 0.33,0 of 18
LIETLSQGMRDNWSAVA,EAHMLVQ,QHYARLPLS,nd nd nd nd nd nd,0 of 18
SIQNLGMVNSVWKNSIA,DVNILED,QQYWRLPLL,0.38 0.06 0.13 -0.12 0.15 0.10,1 of 18 (3.16)
HVAHASLESNATMNSVA,NEACLAI,QQYHRLPLA,nd 1.44 1.34 nd nd 1.58,0 of 18
GFSDQITEQIAHANSIA,DRDERDV,QQYSRLPLI,0.42 0.62 0.03 0.28 0.15 0.16,0 of 18
NLSIQREHQNMDAYAVA,QTEIREV,QQYAILPLA,2.23 2.16 nd 1.24 1.82 nd,0 of 18
NLSIQNQPQNMSANAVA,QTESRCE,QQYAQLPLA,2.24 1.96 2.36 1.76 1.92 3.05,1 of 18 (2.64)
SLIPFEQQIMKDLNNIA,NTQVRAT,QQYMRLPFM,0.70 0.36 0.25 0.41 0.31 0.41,0 of 18
KLSSHYFESYGERQAVA,DNEATMN,QQYHLLPLS,nd nd 1.38 1.77 1.82 2.68,1 of 18 (1.55)
MVLKEDFQEYAAKNAVA,NASEKET,QHYARLPLV,1.47 1.65 1.84 1.50 1.65 1.94,1 of 18 (3.80)
HMLYQFNTGSLRVNNVA,EGETVLD,QQYFRLPIT,nd 0.59 0.78 1.20 nd 1.27,0 of 18
KVEIFMWTMDNANQHIA,NGAEERP,QQYQRLPLS,nd nd nd nd nd nd,0 of 18
HVSNLLTDEMVREYNIA,ETSHVEE,QQYERLPLI,1.45 0.92 1.02 1.52 1.52 1.17,1 of 18 (1.87)
QIFFNDFQYRIESQNIA,QASMREV,QQYARLPLV,nd nd nd nd nd nd,0 of 18
MIEEDNAGEQKNSSNIA,SVDQRED,QQYQRLPLM,1.87 1.27 1.81 1.22 1.32 1.74,0 of 18
RIQEQMQKPDNAGQNVA,ENQTVID,QQYAHLPLS,nd 3.19 2.53 2.05 2.79 2.48,1 of 18 (2.91)
TLMFDGEYSDKENYAIA,DAIHTQV,QQYVRLPLS,0.74 1.18 1.03 0.87 0.77 0.91,0 of 18
RLNVFQNVSTQGNNNIA,QAEQKVH,QQYMRLPLY,1.07 1.17 1.81 1.32 1.31 1.43,0 of 18
QVQAFHEHEKDQTQAMA,EASMRDA,QQYERLPLS,1.07 1.11 0.62 0.97 1.04 0.92,0 of 18
SLEMFTGMLNMYKSSIA,NATYLVQ,QQYYRLPIS,1.19 1.48 1.18 1.56 1.12 1.63,1 of 18 (2.52)
HIQSESYHFGKDHQSMA,DAHCKAA,QQYFRLPLM,1.23 0.99 1.31 1.27 1.29 1.81,1 of 18 (2.80)
KLNDAWQGDIVNNQNIA,SADTLNH,QQYAKLPLS,0.57 0.46 0.23 0.56 0.89 0.94,0 of 18
QVFFNLFEQGKRSQPIA,GTSMRET,QQYARLPLI,1.24 0.94 1.19 1.45 1.12 1.56,0 of 18
SLTAHHQEAKSAENSIA,EAVMLQS,QQYHQLPLM,1.14 1.33 1.45 0.65 1.07 1.01,0 of 18
MINMEIGIEDMKWQAVA,SAHVRAF,QQYGRLPFS,0.39 nd 0.93 1.49 1.53 nd,0 of 18
HTQHLGFGDPAWANSIA,ERSQVCA,QQYFRLPLI,0.91 1.08 0.78 0.88 1.18 0.79,0 of 18

The last 5 entries again:

{"CDR-L1": "KLNDAWQGDIVNNQNIA", "CDR-L2": "SADTLNH", "CDR-L3": "QQYAKLPLS", "log10 Kd, replicates": "0.57 0.46 0.23 0.56 0.89 0.94", "control signals": "0 of 18"}
{"CDR-L1": "QVFFNLFEQGKRSQPIA", "CDR-L2": "GTSMRET", "CDR-L3": "QQYARLPLI", "log10 Kd, replicates": "1.24 0.94 1.19 1.45 1.12 1.56", "control signals": "0 of 18"}
{"CDR-L1": "SLTAHHQEAKSAENSIA", "CDR-L2": "EAVMLQS", "CDR-L3": "QQYHQLPLM", "log10 Kd, replicates": "1.14 1.33 1.45 0.65 1.07 1.01", "control signals": "0 of 18"}
{"CDR-L1": "MINMEIGIEDMKWQAVA", "CDR-L2": "SAHVRAF", "CDR-L3": "QQYGRLPFS", "log10 Kd, replicates": "0.39 nd 0.93 1.49 1.53 nd", "control signals": "0 of 18"}
{"CDR-L1": "HTQHLGFGDPAWANSIA", "CDR-L2": "ERSQVCA", "CDR-L3": "QQYFRLPLI", "log10 Kd, replicates": "0.91 1.08 0.78 0.88 1.18 0.79", "control signals": "0 of 18"}

Values of this round are not directly comparable with the first-round values of the same sequences.
Of ten entries with the parent sequence, four were seen in most replicates (averages 0.34 to 2.37), three in one and three in none, so single entries are noisy.
Empty control strains, which show no peptide, gave a signal in 4% of pairings with all light chain designs; the median was 2.64 and 95% of these signals were weaker than 1.59. No background was subtracted. The control count says in how many pairings with the empty strains this scFv gave a signal, with their mean in brackets.